Experiments:
[1] = system: Swine; assay: Toxicity Study in Swine; conditions: 5 pigs
[2] = system: dogs; assay: Toxicity in dogs
[3] = system: Sheep; assay: Toxicity in Sheep; conditions: for Number dead/total / Symptoms Observed in Survivors: sheep
[4] = SOD 250 mg/kg, values marked *: died 5-6 days after administration, esophageal puncture not related to medication

Row | Compound | Death (No. of Pigs) ([1]; SOD 150 mg/kg) | No. of Pigs with Toxic Symptoms ([1]; SOD 150 mg/kg) | Number of Dogs Showing Adverse Symptoms/total treated: *Severe Toxicity ([2]; SOD 25 mg/kg) | Number of Dogs Showing Adverse Symptoms/total treated: Transient Anorexia ([2]; SOD 25 mg/kg) | Number of Dogs Showing Adverse Symptoms/total treated: Transient Emesis ([2]; SOD 25 mg/kg) | Number of Dogs Showing Adverse Symptoms/total treated: *Severe Toxicity ([2]; SOD 50 mg/kg) | Number of Dogs Showing Adverse Symptoms/total treated: Transient Anorexia ([2]; SOD 50 mg/kg) | Number of Dogs Showing Adverse Symptoms/total treated: Transient Emesis ([2]; SOD 50 mg/kg) | Number of Dogs Showing Adverse Symptoms/total treated: *Severe Toxicity ([2]; SOD 75 mg/kg) | Number of Dogs Showing Adverse Symptoms/total treated: Transient Anorexia ([2]; SOD 75 mg/kg) | Number of Dogs Showing Adverse Symptoms/total treated: Transient Emesis ([2]; SOD 75 mg/kg) | Number dead/total ([3]; SOD 100 mg/kg) | Death (No. of Pigs) ([1]; SOD 200 mg/kg) | No. of Pigs with Toxic Symptoms ([1]; SOD 200 mg/kg) | No. of Pigs with Toxic Symptoms ([1]; SOD 250 mg/kg) | Death (No. of Pigs) [1, 4] | Number dead/total ([3]; SOD 200 mg/kg) | other results
1 | CCOP(=O)(NC(=S)Nc1ccccc1NC(=S)NP(=O)(OCC)OCC)OCC | 4 | 5 | 0/5 | 0/5 | 3/5 | 1/5 | 2/5 | 1/5 | 1/3 | 2/3 | 2/3 | 1/2 |  |  |  |  |  | Death (No. of Pigs) ([1]; SOD 50 mg/kg): 1; No. of Pigs with Toxic Symptoms ([1]; SOD 50 mg/kg): 5; Death (No. of Pigs) ([1]; SOD 100 mg/kg): 0; No. of Pigs with Toxic Symptoms ([1]; SOD 100 mg/kg): 5; symptoms persisted ([3]; sheep survivors, SOD 50 and 100 mg/kg): 9 days; Number dead/total ([3]; SOD 50 mg/kg): 1/2; Symptoms Observed in Survivors ([3]; SOD 50 and 100 mg/kg): Salivation, rigidity, malaise, anorexia
2 | CCOP(=O)(NC(=S)Nc1ccc(NC(=S)NP(=O)(OCC)OCC)c(Cl)c1)OCC | 0 | 5 | 0/3 | 1/3 | 1/3 | 0/3 | 0/3 | 0/3 | 0/3 | 2/3 | 2/3 | 0/1 | 1 | 3 | 5 | 1 | 0/2 | Symptoms Observed in Survivors ([3]; SOD 100 and 200 mg/kg): No obvious symptoms
3 | CCOP(=O)(NC(=S)Nc1ccc(NC(=S)NP(=O)(OCC)OCC)c(OC)c1)OCC | 0 | 0 | 0/3 | 0/3 | 1/3 | 0/3 | 3/3 | 1/3 | 0/3 | 1/3 | 0/3 |  | 0 | 5 | 5 | 2 |  | 
4 | CCOP(=O)(NC(=S)Nc1ccc(Cl)cc1NC(=S)NP(=O)(OCC)OCC)OCC |  |  |  |  |  |  |  |  |  |  |  | 0/2 |  |  |  |  | 2/2 | symptoms persisted after dosing ([3]; sheep survivors, SOD 150 mg/kg): 4 days; Symptoms Observed in Survivors ([3]; SOD 100 mg/kg): No obvious symptoms; Number dead/total ([3]; SOD 150 mg/kg): 1/2

Reference: patent publication US4239708A, “P-Phenylene bis[imino(thiocarbonyl)] diphosphoramidic acid esters as anthelmentic agents” (dated 1980)
